This test deals with CDK4 (Homo sapiens, UniProt P11802). The settings on record: pre-treatment with 100 nM abemaciclib.

Sequences of proteins named here, by UniProt entry; tags and fusion partners are left off. A change or cut given only in a name is not applied to a line headed by its entry.
UniProt P11802: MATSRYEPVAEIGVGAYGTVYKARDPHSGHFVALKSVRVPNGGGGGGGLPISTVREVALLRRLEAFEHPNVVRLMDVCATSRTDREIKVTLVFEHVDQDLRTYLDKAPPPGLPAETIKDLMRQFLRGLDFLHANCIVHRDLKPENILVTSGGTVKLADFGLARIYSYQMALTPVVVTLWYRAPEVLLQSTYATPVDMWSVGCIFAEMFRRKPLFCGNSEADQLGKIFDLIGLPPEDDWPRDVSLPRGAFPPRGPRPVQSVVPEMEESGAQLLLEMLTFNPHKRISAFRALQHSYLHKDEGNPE

Structures are written as SMILES. Like-named read-outs stand apart in the source and are kept apart here.

Turning to `CCN1CCN(Cc2ccc(Nc3ncc(F)c(-c4cc(F)c5nc(C)n(C(C)C)c5c4)n3)nc2)CC1` [abemaciclib], the “kinase activity of CDK4 reduced compared to untreated” value (IP-CDK4 from resistant CDK6-high (FAT1 loss) MCF7 cells) is 82% and the “kinase activity of CDK4 reduced compared to untreated” value (IP-CDK4 from sensitive MCF7 parental cells) is recorded as 84%.

The record behind these values is US20250144099A1, “INK4 TUMOR SUPPRESSOR PROTEINS MEDIATE RESISTANCE TO CDK4/6 KINASE INHIBITORS” (MEMORIAL SLOAN-KETTERING CANCER CENTER, priority 2021, published 2025).
